The values below come from patent US7176199B2, “Aryl-substituted alicyclic compound and medical composition comprising the same” (Dainippon Pharmaceutical Co., Ltd., priority 2001, dated 2007).

Amino acid sequences for entries named in this document (tags omitted). Residues count along the entry.
UniProt P05106, 27-788 limits assumed: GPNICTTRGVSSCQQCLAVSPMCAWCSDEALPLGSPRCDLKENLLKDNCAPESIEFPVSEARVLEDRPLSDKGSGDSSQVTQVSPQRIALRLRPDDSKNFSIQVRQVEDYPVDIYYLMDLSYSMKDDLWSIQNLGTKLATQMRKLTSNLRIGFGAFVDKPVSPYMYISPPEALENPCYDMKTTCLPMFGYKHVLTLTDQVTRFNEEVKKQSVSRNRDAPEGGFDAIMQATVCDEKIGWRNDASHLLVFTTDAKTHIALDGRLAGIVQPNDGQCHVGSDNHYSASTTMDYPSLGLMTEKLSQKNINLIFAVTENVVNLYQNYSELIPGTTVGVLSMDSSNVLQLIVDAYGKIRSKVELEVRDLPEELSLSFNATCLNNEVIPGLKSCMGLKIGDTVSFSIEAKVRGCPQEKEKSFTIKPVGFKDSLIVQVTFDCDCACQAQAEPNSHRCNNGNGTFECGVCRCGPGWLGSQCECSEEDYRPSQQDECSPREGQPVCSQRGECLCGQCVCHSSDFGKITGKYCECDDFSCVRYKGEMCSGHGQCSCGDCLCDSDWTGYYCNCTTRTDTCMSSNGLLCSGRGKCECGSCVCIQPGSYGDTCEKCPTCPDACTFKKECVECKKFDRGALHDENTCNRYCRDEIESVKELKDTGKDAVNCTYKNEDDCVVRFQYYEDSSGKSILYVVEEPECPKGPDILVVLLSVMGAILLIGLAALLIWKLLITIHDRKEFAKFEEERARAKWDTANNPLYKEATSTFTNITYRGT
UniProt P08514, 32-887 limits assumed: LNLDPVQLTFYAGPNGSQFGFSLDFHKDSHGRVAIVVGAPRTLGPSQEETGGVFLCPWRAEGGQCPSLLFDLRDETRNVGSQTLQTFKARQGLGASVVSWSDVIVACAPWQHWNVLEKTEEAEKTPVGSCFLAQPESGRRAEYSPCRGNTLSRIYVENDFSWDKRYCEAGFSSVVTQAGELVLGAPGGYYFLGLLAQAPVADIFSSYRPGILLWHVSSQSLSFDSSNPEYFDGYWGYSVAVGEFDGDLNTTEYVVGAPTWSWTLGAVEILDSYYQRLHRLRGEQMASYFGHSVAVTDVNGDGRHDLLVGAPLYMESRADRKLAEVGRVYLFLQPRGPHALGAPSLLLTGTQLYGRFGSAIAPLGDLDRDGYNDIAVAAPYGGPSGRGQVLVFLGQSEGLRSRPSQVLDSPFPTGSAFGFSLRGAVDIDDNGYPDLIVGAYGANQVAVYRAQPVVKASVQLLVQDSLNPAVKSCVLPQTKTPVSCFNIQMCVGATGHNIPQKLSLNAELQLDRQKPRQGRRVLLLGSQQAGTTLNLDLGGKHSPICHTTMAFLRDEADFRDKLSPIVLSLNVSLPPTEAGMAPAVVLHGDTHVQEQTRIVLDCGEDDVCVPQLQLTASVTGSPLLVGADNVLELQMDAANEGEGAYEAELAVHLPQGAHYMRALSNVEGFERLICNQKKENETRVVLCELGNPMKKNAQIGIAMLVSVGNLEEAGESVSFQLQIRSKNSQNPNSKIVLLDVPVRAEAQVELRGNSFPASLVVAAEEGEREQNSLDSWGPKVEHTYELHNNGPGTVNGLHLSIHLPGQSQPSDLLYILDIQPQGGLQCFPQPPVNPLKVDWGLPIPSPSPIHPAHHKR
UniProt P08514, 891-1039 partner limits assumed: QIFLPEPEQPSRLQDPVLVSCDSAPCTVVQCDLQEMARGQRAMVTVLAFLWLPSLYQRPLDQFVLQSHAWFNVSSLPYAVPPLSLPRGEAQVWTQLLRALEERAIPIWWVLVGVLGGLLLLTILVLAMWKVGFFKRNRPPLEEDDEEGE
UniProt P06756, 31-889 limits assumed: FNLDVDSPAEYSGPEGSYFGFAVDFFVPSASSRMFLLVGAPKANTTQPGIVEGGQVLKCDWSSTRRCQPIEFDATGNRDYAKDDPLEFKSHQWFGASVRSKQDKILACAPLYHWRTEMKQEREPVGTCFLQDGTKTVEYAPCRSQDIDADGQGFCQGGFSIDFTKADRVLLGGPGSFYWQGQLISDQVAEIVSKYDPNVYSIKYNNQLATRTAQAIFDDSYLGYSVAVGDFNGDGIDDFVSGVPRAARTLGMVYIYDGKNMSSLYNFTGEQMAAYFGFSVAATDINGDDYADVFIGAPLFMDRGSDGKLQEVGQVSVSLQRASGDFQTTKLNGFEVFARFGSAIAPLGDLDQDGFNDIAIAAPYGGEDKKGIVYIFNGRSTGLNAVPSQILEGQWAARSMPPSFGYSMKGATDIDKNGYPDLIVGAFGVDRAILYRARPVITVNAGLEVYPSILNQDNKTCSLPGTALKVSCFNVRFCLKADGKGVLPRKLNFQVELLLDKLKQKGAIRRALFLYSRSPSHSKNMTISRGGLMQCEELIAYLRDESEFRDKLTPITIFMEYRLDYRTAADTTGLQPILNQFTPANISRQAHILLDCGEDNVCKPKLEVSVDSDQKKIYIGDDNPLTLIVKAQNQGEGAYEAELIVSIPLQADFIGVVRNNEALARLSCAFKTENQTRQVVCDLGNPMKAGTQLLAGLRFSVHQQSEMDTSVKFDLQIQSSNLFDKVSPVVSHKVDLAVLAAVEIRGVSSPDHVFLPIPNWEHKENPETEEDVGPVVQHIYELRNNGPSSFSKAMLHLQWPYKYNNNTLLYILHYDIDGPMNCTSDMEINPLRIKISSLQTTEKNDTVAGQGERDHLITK
UniProt P06756, 891-1048 partner limits assumed: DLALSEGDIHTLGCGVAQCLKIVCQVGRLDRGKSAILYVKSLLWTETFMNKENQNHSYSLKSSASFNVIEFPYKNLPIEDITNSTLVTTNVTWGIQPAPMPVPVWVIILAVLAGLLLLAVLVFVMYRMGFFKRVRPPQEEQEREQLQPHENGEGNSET

Bounds are passed on as bounds.

Usually IC50 stands for the concentration that gives 50% inhibition.

The target in assay [1] is αIIbβ3 integrin (Homo sapiens, UniProt P05106+P08514). The assay is described as follows: Assay for the inhibition of αIIbβ3 integrin binding (fibrinogen as ligand, integrin captured from platelet lysate). The settings on record: read-out: IC50 (nM) αIIbβ3 integrin binding; inhibition of specific binding of biotinylated fibrinogen to αIIbβ3 integrin from human platelet lysate.

For assay [2], the target named is αvβ3 integrin (Homo sapiens, UniProt P05106+P06756). The assay is described as follows: Assay for the inhibition of αvβ3 integrin binding (vitronectin as ligand). The settings on record: read-out: IC50 (nM) αvβ3 integrin binding; inhibition of specific binding of biotinylated human vitronectin to immobilized αvβ3 integrin.

`O=C(NC[C@H](NS(=O)(=O)c1ccccc1)C(=O)O)C1CCN(c2cccc(NC3=NCCCN3)c2)CC1`: the IC50 is 24 nM in assay [1] and 0.1 nM in assay [2].
For `O=C(Cc1ccccc1)N[C@@H](CNC(=O)C1CCN(c2cccc(NC3=NCCCN3)c2)CC1)C(=O)O` the same measures were 450 nM and 0.74 nM.
For `O=C(Nc1cccnc1)N[C@@H](CNC(=O)C1CCN(c2cccc(NC3=NCCCN3)c2)CC1)C(=O)O` the same measures were 160 nM and 0.47 nM.
On the same counts, the results for `CCCS(=O)(=O)N[C@@H](CNC(=O)C1CCN(c2cccc(NC3=NCCCN3)c2)CC1)C(=O)O` are 350 nM and 0.65 nM.
Consider `O=C(NC[C@H](NC(=O)C1CCCC1)C(=O)O)C1CCN(c2cccc(NC3=NCCCN3)c2)CC1`, for which the values for the IC50 in assay [1] and in assay [2] were 960 nM and 3.9 nM, respectively.
For the molecule `COc1ccc(S(=O)(=O)N[C@@H](CNC(=O)C2CCN(c3cccc(NC4=NCCCN4)c3)CC2)C(=O)O)cc1`, in assay [1], the IC50 was 190 nM.
Turning to `CCCCCCCCS(=O)(=O)N[C@@H](CNC(=O)C1CCN(c2cccc(NC3=NCCCN3)c2)CC1)C(=O)O`, the IC50 in assay [1] was determined as 650 nM; in assay [2], 1.4 nM.
On to `O=C(NC[C@H](NS(=O)(=O)c1ccc(F)cc1)C(=O)O)C1CCN(c2cccc(NC3=NCCCN3)c2)CC1`, for which the values for the 50% inhibitory concentration (IC50) in assay [1] and in assay [2] were 320 nM and 0.45 nM, respectively.
On to `CC(C)CC(=O)N[C@@H](CNC(=O)C1CCN(c2cccc(NC3=NCCCN3)c2)CC1)C(=O)O`, for which the values for the IC50 in assay [1] and in assay [2] were 580 nM and 5.7 nM, respectively.
For `CCCCCCOC(=O)N[C@@H](CCC(=O)N1CCN(c2cccc(NC3=NCC(C)(C)CN3)c2)CC1)C(=O)O` the same measures were > 1000 nM and 0.39 nM.
On the same counts, the results for `Cc1cc(C)c(S(=O)(=O)N[C@@H](CNC(=O)C2CCN(c3cccc(NC4=NCCCN4)c3)CC2)C(=O)O)c(C)c1` are 13 nM and 0.065 nM.
For `CC(C)NC(=O)N[C@@H](CNC(=O)C1CCN(c2cccc(NC3=NCCCN3)c2)CC1)C(=O)O` the same measures were 270 nM and 0.72 nM.
In the case of `O=C(CCc1ccccc1)N[C@@H](CNC(=O)C1CCN(c2cccc(NC3=NCCCN3)c2)CC1)C(=O)O`, the IC50 in assay [1] was 1100 nM; in assay [2], 3 nM.
For `O=C(NCc1ccccc1)N[C@@H](CNC(=O)C1CCN(c2cccc(NC3=NCCCN3)c2)CC1)C(=O)O` the same measures were 150 nM and 0.35 nM.
For `O=C(N[C@@H](CNC(=O)C1CCN(c2cccc(NC3=NCCCN3)c2)CC1)C(=O)O)c1ccccn1` the same measures were 430 nM and 0.75 nM.
On the same counts, the results for `CC(C)=CC(=O)N[C@@H](CNC(=O)C1CCN(c2cccc(NC3=NCCCN3)c2)CC1)C(=O)O` are 480 nM and 0.87 nM.
On to `O=C(N[C@@H](CNC(=O)C1CCN(c2cccc(NC3=NCCCN3)c2)CC1)C(=O)O)c1ccccc1`, for which the values for the IC50 in assay [1] and in assay [2] were 210 nM and 2.5 nM, respectively.
For `CCCCCC(=O)N[C@@H](CNC(=O)C1CCN(c2cccc(NC3=NCCCN3)c2)CC1)C(=O)O` the same measures were > 1000 nM and 5.1 nM.
On the same counts, the results for `O=C(NC[C@H](NS(=O)(=O)c1ccc2ccccc2c1)C(=O)O)C1CCN(c2cccc(NC3=NCCCN3)c2)CC1` are 73 nM and 0.25 nM.
